Source: EP4821512A1, “RADIOLABELED COLLAGEN HYBRIDIZING PEPTIDE AND PREPARATION METHOD THEREFOR AND USE THEREOF” (dated 2026)

Tests used:
[1] = tested on: denatured collagen in orthotopic abdominal pancreatic tumors; experiment: 2 h static PET-CT and ex vivo PET, CFPAC-1-LUC orthotopic pancreatic tumor model; conditions: for in vivo PET signal in pancreas / visualization of pancreatic tumors: orthotopic tumor-bearing mice
Excerpt: One reason PDAC is difficult to detect is its deep anatomical location. Therefore, this test example utilized an orthotopic tumor model using ^68Ga-Cy5-CHP prepared in Example 2 and ^68Ga-Cy5-^SCHP prepared in Comparative Example 2 as samples to evaluate the capability of the radiolabeled CHP-PET probe constructed in the present disclosure for in vivo detection of orthotopic pancreatic tumors in deep anatomical locations. The specific process included the following: An orthotopic model was constructed by injecting 1x10^6 human pancreatic cancer cells (CFPAC-1-LUC) into the tail of the pancreas of 6-week-old female Balb/c-nu nude mice, and the success of the model was confirmed via bioluminescence (as specifically shown in FIG. 6). Normal mice of the same age were injected via the tail vein with approximately 8.42 MBq of ^68Ga-Cy5-CHP; orthotopic tumor-bearing mice were injected via the tail vein with approximately 8.42 MBq of ^68Ga-Cy5-^SCHP (the probe from Comparative Example 2); and another group of mice was pre-injected with a blocking dose of the non-radiolabeled precursor probe NOTA-Cy5-CHP followed by the injection of ^68Ga-Cy5-CHP (blocking group). Static PET-CT imaging was performed for 2 h.
In contrast, no signal is observed in the pancreas of normal mice, or in model mice using the scrambled probe or the blocking group (as shown in FIG. 7A). After the static scan, the mice were sacrificed, and the pancreas was harvested for ex vivo PET imaging.
Furthermore, since the orthotopic tumor model involves planting the tumor in the tail region of the pancreas, the harvested pancreas was divided into two parts: the pancreatic tail (tumor) and the pancreatic head. The radioactive uptake of both parts and the ratio of pancreatic tail to pancreatic head were calculated.

[2] = tested on: denatured collagen; experiment: PET/CT of bleomycin-induced pulmonary fibrosis mouse model; conditions: for accumulation in lungs of BM-treated mice (PET): day 28 after bleomycin 5.0 mg/kg, approx. 9.67 MBq i.v.
Protocol: To further verify the disease detection versatility of the CHP-PET probe, this test example used a bleomycin-induced pulmonary fibrosis mouse model to explore the potential of the CHP-PET probe for detecting pulmonary fibrosis. The specific method was as follows: Bleomycin (BM) was dissolved in PBS and administered in a single dose of 5.0 mg/kg to each male C57BL/6J mouse (6-8 weeks old); and the control group received no treatment. After bleomycin inhalation, the animals were rotated up and down to distribute the drug solution evenly throughout the lungs. […] The mice were placed in cages and, after their breathing stabilized, returned to the SPF-grade animal room for rearing. On day 28 after drug-induced pulmonary fibrosis, mice were intravenously injected with approximately 9.67 MBq of ^68Ga-Cy5-CHP or ^68Ga-Cy5-^SCHP.
Immediately after the PET/CT scan, the lungs were collected and subjected to radioactivity measurement. Subsequently, PET-CT imaging was performed for the 7-day inflammatory stage after drug induction. […] It can be seen that ^68Ga-Cy5-CHP can detect lung lesions in vivo and has the potential for non-invasive detection of early pulmonary fibrosis.

[3] = tested on: PDAC lesions in the KPC model; experiment: Static PET, ex vivo PET and biodistribution for PDAC lesions in the transgenic KPC model; conditions: KPC mice >16 weeks, approx. 10 MBq tail vein
Excerpt: Since the probes target the ECM, there are significant differences between the tumor ECM induced after injecting human tumor cells, whether in subcutaneous or orthotopic tumor models, and the real tumor ECM. […] The probes prepared in the examples of the present disclosure were used to detect PDAC lesions in the KPC model (>16 weeks of age) to further screen for preferred targeting probes.
The specific experimental method was as follows: KPC mice and normal mice of the same age were taken, and approximately 10 MBq of ^68Ga-Cy5-CHP was injected into the tail vein of the mice, respectively. Static scans were performed for 2 h. After the static scans, the mice were sacrificed, the pancreas was harvested for ex vivo PET, and the radioactive biodistribution of all organs was determined.
In order to adjust the biodistribution of radionuclide-labeled molecular probes and thereby improve the in vivo imaging effect of pancreatic tumors, in this section, ^68Ga-Cy5-CHP was improved by using another metal nuclide, ^64Cu, i.e., ^64Cu-Cy5-CHP prepared in the above Example 3 was used for further detection. The specific method was as follows: Approximately 10 MBq of ^64Cu-Cy5-CHP was injected into the tail vein of KPC mice (>16 weeks of age) and normal mice of the same age. Static scans were performed at multiple time points of 2 h, 4 h, 6 h, and 8 h. After 8 h, the pancreas was harvested for ex vivo PET.
In this section, the nuclide was changed to Al^18F, i.e., the Al^18F-Cy5-CHP probe prepared in Example 4 was used for in vivo imaging of pancreatic tumors. The specific method was as follows: approximately 10 MBq of Al^18F-Cy5-CHP was injected into the tail vein of KPC mice (>16 weeks of age) and normal mice of the same age, and a 3 h static scan was performed.

[4] = tested on: denatured collagen; experiment: Biodistribution by 1 h PET/CT, CFPAC-1 subcutaneous tumor-bearing mice and normal mice; conditions: for uptake in non-target organs (liver, kidneys etc.): subcutaneous tumor-bearing mice (Al^18F-NOTA2 probe: also normal mice); for uptake in non-target organs (liver, kidneys etc.) / tumor signal / signal-to-noise ratio at the tumor site: approx. 8.42 MBq tail vein
Protocol: In order to intuitively evaluate the in vivo targeting specificity for denatured collagen and the in vivo biodistribution effects of the various constructed CHP-PET probes, this test example used the human pancreatic cancer cell line CFPAC-1 to construct a mouse subcutaneous tumor model. Subsequently, approximately 8.42 MBq of the collagen hybridizing peptide probes prepared in the above Examples 5-7 and Comparative Examples 3-6 were injected via the tail vein, and PET-CT imaging was performed at designated times.
The specific construction method for the mouse subcutaneous tumor model was as follows: 3 × 10^6 CFPAC-1 cells were injected into the right shoulder/back of 6-week-old female Balb/c-nu nude mice, and subsequent experiments were conducted when the subcutaneous tumors reached 200 mm^3.

[5] = Chemical stability during radiolabeling (radio-HPLC of labeled reaction solution versus probe precursor); conditions: 50 nmol precursor
Excerpt: In nuclide labeling reaction systems, only a trace amount of nuclide is present (for example, 666 MBq of ^68Ga is only 0.00648 nmol; 2.5 GBq of ^18F is only 0.03944 nmol). Consequently, the precursor (50 nmol) added in each reaction is in vast excess compared to the nuclide atoms. Therefore, if the probe molecular structure remains stable during the radiolabeling process, a sufficient amount of precursor molecules should remain in the reaction solution after labeling. This test example performed radio-HPLC analysis on the reaction solutions after radiolabeling for the different probes prepared in Examples 5-7 and Comparative Examples 4 and 6, and compared the resulting profiles with the HPLC profiles of their corresponding probe precursors to determine stability.

[6] = tested on: denatured collagen; experiment: 1 h dynamic PET-CT and ex vivo biodistribution, CFPAC-1 subcutaneous tumor model; conditions: subcutaneous CFPAC-1 tumor, approx. 8.42 MBq tail vein
Protocol: In this test example, ^68Ga-Cy3-CHP prepared in Example 1 was used as a sample to evaluate the in vivo targeting specificity of the radiolabeled CHP-PET probe constructed in the present disclosure toward denatured collagen. The specific methods were as follows: First, a mouse subcutaneous tumor model was constructed using the human pancreatic cancer cell line CFPAC-1 (3×10^6 CFPAC-1 cells were injected into the right shoulder/back of 6-week-old female Balb/c-nu nude mice; experiments were conducted when the subcutaneous tumors reached 200 mm^3). The mice were divided into three groups. In two of the groups, the subcutaneous tumor-bearing mice were injected via the tail vein with approximately 8.42 MBq of either the denatured collagen-targeting probe ^68Ga-Cy3-CHP or the non-targeting probe ^68Ga-Cy3-^SCHP (the probe prepared in Comparative Example 1). Another group of mice was pre-injected with a blocking dose of the non-radiolabeled precursor probe NOTA-Cy3-CHP before being injected with ^68Ga-Cy3-CHP (blocking group). Dynamic PET-CT imaging was performed for 1 h.
To verify the PET imaging results, the mice were euthanized after the 1 h dynamic PET imaging, and the tumors were harvested for ex vivo biodistribution analysis, calculated as a percentage of the injected dose per gram (% ID/g).

[7] = approx. 8.42 MBq tail vein, 2 h static PET-CT
[8] = subcutaneous tumor-bearing mice, 1 h PET/CT

Cy5-Ahx-K(NOTA-^68Ga)-K(NH2)-Ahx-^S(GfO)9
in vivo PET signal in pancreas / visualization of pancreatic tumors [1, 7]: no signal is observed | accumulation in lungs of BM-treated mice (PET) ([2]; 2 hours post-injection): does not preferentially enter the lungs of BM-treated mice

Cy5-Ahx-K(NOTA-^64Cu)-K(NH2)-Ahx-(GfO)9
ex vivo PET: probe at tumor site ([3]; pancreas harvested after 8 h): enriched at the tumor site | in vivo visualization of PDAC ([3]; static scans at 2 h, 4 h, 6 h and 8 h): the strong signal from the abdominal intestines interferes with the in vivo visualization of PDAC

Cy5-Ahx-K(NOTA-^68Ga)-K(NH2)-Ahx-(GfO)9
radioactive uptake in the pancreatic tail tumor site ([1]; harvested pancreas divided into pancreatic tail (tumor) and pancreatic head, after imaging): significantly high uptake | in vivo PET signal in pancreas, blocking group ([1]; model mice pre-injected with a blocking dose of NOTA-Cy5-CHP, 2 h static PET-CT): no signal is observed | in vivo PET signal in pancreas ([1]; normal mice of the same age, approx. 8.42 MBq tail vein, 2 h static PET-CT): no signal is observed | in vivo PET signal in pancreas / visualization of pancreatic tumors [1, 7]: allows for in vivo visualization of pancreatic tumors | in vivo visualization of PDAC ([3]; 2 h static PET scan): affected by organs around the pancreas such as the liver, spleen, and kidneys, which to some extent interferes with the in vivo visualization of PDAC | ex vivo PET and organ biodistribution: probe at tumor site ([3]; after 2 h static scan): significant enrichment of the probe at the tumor site of the KPC mice | uptake in the lungs, inflammatory stage ([2]; 7 days after bleomycin, versus normal control): significantly higher than that of the normal control | accumulation in lungs of BM-treated mice (PET) ([2]; 2 hours post-injection): specifically accumulates in the fibrotic lungs of BM-treated mice at 28 days | accumulation in lungs of control mice (PET) ([2]; untreated control mice, 2 hours post-injection): not in the healthy lungs of control mice | uptake in non-target organs (liver, kidneys etc.) ([4]; 1 h PET/CT): strong signals are detected in the liver, kidney, and pancreatic positions, especially in the kidneys

Al^18F-NODAGA-Ahx-(GfO)9
structural stability during radiolabeling ([5]; Al^18F labeling, 110 °C 30 min): very stable during the Al^18F labeling process, with only one radioactive peak

Cy3-Ahx-K(NOTA-^68Ga)-K(NH2)-Ahx-^S(GfO)9
tumor PET signal during 1 h dynamic imaging [6]: rapid clearance | tumor visibility on PET images ([6]; 30 min and 60 min of 1 h dynamic PET): tumors are not observable

Al^18F-NOTA-Ahx-(GfO)9
structural stability during radiolabeling ([5]; Al^18F labeling, 110 °C 30 min): unstable during the Al^18F labeling process and undergo radiation decomposition | uptake in non-target organs (liver, kidneys etc.) ([4]; 1 h PET/CT): extremely strong uptake in the liver, kidneys, etc. | tumor signal [4, 8]: signal accumulation in subcutaneous tumors

Cy5-Ahx-K(NOTA-^68Ga)-Ahx-(GfO)9
uptake in non-target organs (liver, kidneys etc.) ([4]; 1 h PET/CT): extremely strong uptake in the liver, kidneys, etc. | uptake in the heart [4, 8]: strong uptake in non-target organs such as the heart | tumor signal [4, 8]: tumor signal almost invisible

^68Ga-NODAGA-Ahx-(GfO)9
structural stability during radiolabeling ([5]; ^68Ga labeling): good stability and does not undergo radiation degradation | excretion ([4]; 1 h imaging after tail vein injection): most of the probe have already been excreted from the kidneys into the bladder | uptake in non-target organs (liver, kidneys etc.) ([4]; 1 h PET/CT): low | signal-to-noise ratio at the tumor site [4, 8]: high signal-to-noise ratio at the tumor site | tumor signal [4, 8]: significant signals in the subcutaneous tumor target organs

Al^18F-NOTA2-Ahx-(GfO)9
structural stability during radiolabeling ([5]; Al^18F labeling, 110 °C 30 min): stable during the Al^18F labeling process and does not undergo radiation degradation | uptake in non-target organs (liver, kidneys etc.) ([4]; 1 h PET/CT): extremely low signals in important non-target organs such as the liver and heart | signal-to-noise ratio at the tumor site [4, 8]: excellent tumor signal-to-noise ratio
